From patent publication US8956445B2, “High stability diionic liquid salts” (Sigma-Aldrich Co., priority 2004, dated 2015) come the findings set out here.

Read-outs that look alike come from different tables or passages of the source.

A short description of series [1]: Surface tension (DuNuoy Tensiometer). The format is physicochemical. As to conditions: room temperature (23° C.).
Series [2] can be described thus: Density (2.0 mL volumetric tube, weighing by difference). As to conditions: 23° C. The series is classed as physicochemical. As to the method: The densities of the ionic liquids or, more correctly, […] (used synonymously except as indicated otherwise explicitly or by context) was determined at 23° C. by placing 2.0 mL of the ionic liquid in a 2.0 mL volumetric tube and weighing by difference. The melting points of the ionic liquids were determined using a Perkin Elmer Pyris 1 Differential Scanning calorimeter (Boston, Mass.). Typical methods involved using a 10° C./min temperature ramp to determine and identify the first and second order thermal transitions. […] For solid compounds, the melting points were verified using a capillary melting point apparatus. Refractive index measurements were conducted at 23° C. using a Bausch & Lomb Abbe-3L refractometer.

In the case of “1,9-di(butylpyrrolidinium)nonane di-bromide [C9(bpy)2-Br]”, the “Miscibility with Heptane” value is “Immiscible” and the “Miscibility with Water” value is listed as “Miscible”.

In the case of “1,12-di(3-benzylimidazolium)dodecane di-bromide [C12(benzim)2-Br]”, the “Miscibility with Heptane” value is listed as “Immiscible” and the “Miscibility with Water” value is “Immiscible”. For the same substance, the “Miscibility with Water” value (listed as 28) was “insoluble in water”.

In the case of “1,9-di(methylpyrrolidinium)nonane di-bromide [C9(mpy)2-Br]”, the “Miscibility with Heptane” value was “Immiscible” and the “Miscibility with Water” value was “Miscible”.

Consider “1,6-di(3-melhylimidazolium)hexane di-bromide [C6(mim)2-Br]”, for which the “Miscibility with Heptane” value is recorded as “Immiscible” and the “Miscibility with Water” value is on record as “Miscible”.

Regarding “1,12-di(3-methylimidazolium)dodecane di-bromide [C12(mim)2-Br]”, the “Miscibility with Heptane” value is reported as “Immiscible” and the “Miscibility with Water” value was “Miscible”. Moreover, in series [1], the “Surface Tension” value came out at 57.9 dynes/cm. This substance also showed a Density in series [2] of 1.27 g/mL.
